## Measured affinities in a library of Ab-14 light chain variants

From the AlphaSeq antibody data of Li et al. 2023 (doi:10.1038/s41467-023-39022-2), copy in the FLAb collection.

Binding partner: SARS-CoV-2 spike HR2 peptide, sequence PDVDLGDISGINAS.

Each scFv is VH, three GGGGS repeats, VL, as in the parent Ab-14, and differs from it in the CDRs of the light chain only.
VH: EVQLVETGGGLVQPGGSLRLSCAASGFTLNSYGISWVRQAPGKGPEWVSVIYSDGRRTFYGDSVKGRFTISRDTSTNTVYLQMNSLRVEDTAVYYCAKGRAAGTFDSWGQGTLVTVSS
VL: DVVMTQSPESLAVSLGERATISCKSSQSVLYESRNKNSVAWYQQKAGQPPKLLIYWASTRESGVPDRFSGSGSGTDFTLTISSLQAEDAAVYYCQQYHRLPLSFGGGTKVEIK

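The parent was found by panning a naive human phage display library on the peptide. Designed CDR sequences, proposed from the first random library and measured here. Their group label is 14L_En_Gen (En: ensemble of fine-tuned language models; Gen: genetic algorithm). In AlphaSeq, yeast of one mating type display the scFv and yeast of the other type display the target. The frequency of each diploid, read from paired DNA barcodes, reflects how well the two displayed proteins bind. A regression on co-assayed BCL2-family reference pairs converts the normalised counts of each replicate to an apparent Kd. Mating was done six times.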

The parent's light chain CDRs are KSSQSVLYESRNKNSVA, WASTRES, QQYHRLPLS; each variant's own CDRs replace them letter for letter.
Numbers give log10(Kd / nM), so 0 is 1 nM and 3 is 1 µM. Smaller is tighter.
A mean of the replicates is given; it leaves out those without a signal.
A pair that was not seen in that replicate is written "ND"; this usually means weak binding, but a binder can also be missed.
The parent sequence was in this pool as ten entries: three were never detected, three once, and four in most replicates, with averages from 0.34 to 2.37.
In the paper, a design with two or fewer of six values counts as a poor binder.
As a blank, each scFv also met three strains without target: over all light chain designs, 4% of these pairings were detected, typically at 2.64 and seldom below 1.59. The control count says in how many pairings with the empty strains this scFv gave a signal, with their mean in brackets.
The range of this assay differs from that of the first round, and the authors advise against merging the two.

CDR-L1	CDR-L2	CDR-L3	log10 Kd, replicates	mean log10 Kd (nM)	signal with controls
ALSMLTEMEHVNRNSVA	ELVTRVN	QQYNRLPLS	1.36 / 1.19 / 0.90 / 0.70 / 0.80 / 0.71	0.94	1/18 (3.27)
IVSQLMMWGMVAKNSIA	EAVTRIN	QQYDRLPLF	ND / 1.22 / 1.82 / 0.84 / 0.91 / 1.09	1.18	1/18 (2.01)
HISMLTLQGMRHRNSVA	QMTTREN	QQYDHLPLS	ND / 1.33 / 2.65 / ND / ND / 1.87	1.95	0/18
TISEVMNTLTREGNNVA	DLQEREK	QQYFRLPLT	1.64 / 1.90 / 1.55 / 0.95 / 1.27 / 1.55	1.48	0/18
KIGSTLNQMMHKKNNVA	DLVTREN	QQYGRLPLS	0.63 / 0.39 / 0.40 / 0.39 / 0.44 / 0.66	0.48	0/18
IVSQLMLWGMHLKNSIA	EAQTRLN	QQYDRLPLF	ND / ND / ND / ND / ND / ND	ND	0/18
MLSQMWALGMKVKNSVA	QANMRFN	QQYDRLPLI	ND / 1.01 / ND / ND / 2.44 / 1.97	1.81	0/18
MMSQVTGLGQRHRNNVA	QTSMRET	QQYDHLPLI	0.75 / 0.73 / 0.86 / 0.89 / 0.73 / 0.86	0.80	1/18 (4.37)
RLSALSGIQSVERNSVA	QNSTRES	QQYDHLPLS	ND / ND / 1.15 / ND / ND / ND	1.15	0/18
KLVQFMNRGTHHTSNIA	DAVNRLD	QQYYRLPLA	0.47 / 0.31 / 0.15 / 0.21 / 0.59 / 0.40	0.36	2/18 (3.10)
TISMVMNHMTKNKNNVA	NMDMRED	QQYDRLPLS	0.74 / 0.73 / 0.79 / 0.52 / 0.48 / 0.68	0.66	2/18 (2.02)
KIGMTLNQLMHQKQNVA	DLVEREN	QQYFRLPLS	0.31 / 0.19 / 0.18 / -0.08 / 0.00 / 0.42	0.17	3/18 (2.81)
MLSQMWAIGMKVSNSVA	QASTRFE	QQYERLPFI	0.86 / 1.27 / 1.10 / 1.80 / 0.67 / 1.42	1.19	0/18
TISQVMNTLTRHGNNVA	DLENRED	QQYFRLPLS	0.48 / 0.36 / 0.49 / 0.08 / 0.15 / 0.64	0.37	1/18 (1.55)
KISQMVRVGATHNNSIA	EEVTRAK	QQYHRLPLA	1.72 / 2.44 / 2.22 / ND / 1.66 / 2.39	2.09	0/18
MISQLYNMGQFAINSVA	QASLRCN	QQYFRLPLE	1.26 / 1.24 / 1.05 / ND / 1.04 / 1.39	1.20	0/18
KLSAQYGVQSVMRNSVA	QNSTREE	QQYDHLPLS	ND / ND / ND / ND / ND / ND	ND	0/18
IVSQLMIWGMHVKNSIA	EAQTRLN	QQYDRLPLI	ND / ND / ND / ND / ND / ND	ND	0/18
KLVNFMNRGTHHTSNIA	DAQNRID	QQYYRLPLA	0.68 / 0.54 / 0.62 / 0.31 / 0.40 / 0.54	0.51	1/18 (4.02)
KLGATYEGEKRQRNSVA	HNSMREN	QQYDRLPLE	1.94 / 1.54 / 2.25 / 2.00 / 1.70 / 1.74	1.86	0/18
HIGLSAMLESTVRNSVA	NNSTRES	QQYDRLPLS	2.97 / 2.35 / 2.14 / 3.71 / 3.06 / 2.84	2.85	1/18 (3.40)
MISQLMNLGQFAINSVA	QAEIRNA	QQYDRLPLA	0.80 / 0.28 / 1.76 / 2.68 / 1.10 / 1.42	1.34	0/18
KISTMVRVGSTHKNSIA	EEATRSD	QQYHRLPLA	ND / ND / 1.78 / 1.45 / 1.42 / 2.45	1.78	0/18
TISELYNQALGMRNNVA	NNQTRED	QQYARLPLS	1.58 / 1.59 / 1.35 / 1.19 / 1.07 / 1.38	1.36	0/18
HITYGMYVSGRYKSNIA	QAEERAK	QQYDRLPLM	1.12 / 0.64 / 0.43 / 0.32 / 0.52 / 1.27	0.71	0/18
KISMTSENQLKNRNSVA	ELVTRMA	QQYNRLPLS	-0.47 / -0.41 / -0.51 / -0.11 / -0.86 / -0.30	-0.44	0/18
MLSQMFGLGMKAKNSVA	QASMRFN	QQYDRLPLI	ND / 1.14 / ND / ND / 1.33 / 2.16	1.54	0/18
IVSQMMLWGMHLKNSIA	EAQTRVN	QQYDRLPLI	0.87 / ND / ND / 3.93 / ND / 0.70	1.83	0/18
KFSQMANSMSVSHSAVA	EMSTRES	QQYNRLPLA	0.35 / 0.44 / 0.57 / 0.39 / 0.55 / 0.53	0.47	1/18 (3.21)
MVYSAVMMGGSARNSIA	NAQMRPD	QQYHRLPLI	ND / ND / ND / ND / ND / ND	ND	0/18
HMSMLTLTGMRHRNSVA	QMTTREN	QQYDRLPLA	1.73 / 1.49 / 1.52 / 1.72 / 1.57 / 1.59	1.60	1/18 (3.10)
TIGQTLMQGIRNRSNVA	EVSQRLN	QQYDRLPLM	1.24 / 1.65 / 1.44 / 1.54 / 1.87 / 0.96	1.45	0/18
HIQYGMMVHGRHSKSIA	QAETRAK	QQYDRLPLI	1.87 / 1.40 / 1.55 / ND / 1.99 / ND	1.70	0/18
KITYVGESMHLKEDSIA	DQECRED	QQYDRLPLS	2.55 / ND / ND / ND / 2.01 / 1.82	2.13	0/18
KIGATLDTLYEKKNNVA	DLVVREN	QQYHRLPLS	0.46 / 0.08 / 0.05 / 0.03 / 0.26 / 0.36	0.20	0/18
KVSEFMKGLTMRKDSIA	DNNTRGT	QQYDRLPLS	1.72 / 1.68 / 1.21 / 1.58 / 1.50 / 1.87	1.60	2/18 (2.42)
IVSQLMLWGMHVKNSIA	EAELRLN	QQYDRLPLF	0.48 / -0.18 / ND / 0.84 / 0.05 / 0.77	0.39	0/18
HITMGMYVHGRHHSSIA	QAETRMK	QQYDRLPLM	ND / 3.77 / 1.98 / ND / ND / ND	2.88	1/18 (2.01)
TISELHNQALGMRNNVA	NNQTRED	QQYNRLPLS	1.17 / 1.71 / ND / 2.58 / ND / ND	1.82	1/18 (2.55)
KVSMFMRGLTQRKDSIA	DNNTRSN	QQYDRLPLS	0.20 / -0.06 / 0.16 / -0.04 / -0.06 / 0.26	0.08	3/18 (2.65)
MMSSLMGYESRHINNVA	QTTTREE	QQYDRLPLI	0.45 / 0.21 / 0.40 / 0.45 / 0.20 / 0.69	0.40	0/18
KLASVTGTEKVIGNNVA	EMETREK	QQYNRLPLS	0.61 / 0.28 / 0.51 / 0.65 / 0.29 / 0.57	0.48	3/18 (2.73)
KLASVTGTEKVMGNNVA	EMETREK	QQYNRLPLS	0.56 / 0.24 / 0.36 / 0.36 / 0.37 / 0.34	0.37	0/18
KLSGLMASSKFQKDNVA	ENNTRED	QQYDRLPLS	1.80 / 2.08 / 1.97 / 2.89 / 3.83 / 2.80	2.56	0/18